# Values of other authors in PMC8179049, “Synthesis of 2-oxoglutarate derivatives and their evaluation as cosubstrates and inhibitors of human aspartate/asparagine-β-hydroxylase” (Chemical Science, 2020).
# System: bovine AspH
# Conditions: cited from earlier work
compound,measurement,value
"O=C(O)CCC(=O)C(=O)O [2OG, 2-Oxoglutarate]",K app m (2OG) of bovine AspH,~5 µM
